US11448654B2, “Protein-protein interaction assessed by detecting localized coiled coil subunits” (The Regents of the University of California, priority 2017, dated 2022)

Amino acid sequences for entries named in this document (tags omitted). Residues count along the entry.
UniProt Q00987, 26-109 limits assumed: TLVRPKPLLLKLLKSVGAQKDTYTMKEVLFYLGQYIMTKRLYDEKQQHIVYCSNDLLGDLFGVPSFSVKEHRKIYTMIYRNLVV

Target: T1, p53 and HDM2 (Homo sapiens, UniProt Q00987)
T1 construct: expressed in transfected cells; host or cells: HEK293
Experiment: Inducible SPARK system for dissociation of p53 and HDM2 in HEK293 cells
Type: cell-based
Conditions: added after rapamycin

SMILES: COc1ccc(C2=N[C@@H](c3ccc(Cl)cc3)[C@@H](c3ccc(Cl)cc3)N2C(=O)N2CCNC(=O)C2)c(OC(C)C)c1 [Nutlin-3a]
- effect on the green fluorescent droplets: not affected
- half-time of disassembly of the infrared fluorescent droplets: ~2 min
